What was measured:
[1] = target: Human activated protein C (human) (UniProt P04070)
Human plasmin (human) = Human plasmin (human) (UniProt P00747)
[2] = target: tissue factor-Factor VIIa (human) (UniProt P13726)
[3] = target: Human Factor XIIa (human) (UniProt P00748)
[4] = target: Human plasma kallikrein (human) (UniProt P03952)
Human Factor XIa (human) [5] = target: Human Factor XIa (human) (UniProt P03951)
Human thrombin (human) = Human thrombin (human) (UniProt P00734)
Human Factor Xa (human) = Human Factor Xa (human) (UniProt P00742)
Human Factor XIa (human) [6] = target: Human Factor XIa (human) (UniProt P03951); experiment: enzyme inhibition of FXIa, chromogenic substrate, fit to the tight-binding equation (apparent Ki*)

Substance | fraction of remaining proteolytic activity at 100 nM inhibitor (fraction of uninhibited rate) [1] | fraction of remaining proteolytic activity at 100 nM inhibitor (fraction of uninhibited rate) (Human plasmin (human)) | fraction of remaining proteolytic activity at 100 nM inhibitor (fraction of uninhibited rate) [2] | fraction of remaining proteolytic activity at 100 nM inhibitor (fraction of uninhibited rate) [3] | fraction of remaining proteolytic activity at 100 nM inhibitor (fraction of uninhibited rate) [4] | fraction of remaining proteolytic activity at 100 nM inhibitor (fraction of uninhibited rate) (Human Factor XIa (human) [5]) | fraction of remaining proteolytic activity at 100 nM inhibitor (fraction of uninhibited rate) (Human thrombin (human)) | fraction of remaining proteolytic activity at 100 nM inhibitor (fraction of uninhibited rate) (Human Factor Xa (human)) | Ki (Human Factor XIa (human) [6])
BPTI, bovine basic pancreatic trypsin inhibitor | 0.84 | 0 | 1.01 | 1.01 | 0.34 | 0.67 | 0.97 | 0.99 | 
BPTI, bovine basic pancreatic trypsin inhibitor (other; other documents disagree on this pair) |  |  |  |  |  |  |  |  | > 300 nM

Source: patent publication US5780265
